# In US20100112617A1, “Evaluating RTK Target Drugs” (Apocell, Inc, priority 2007, published 2010):
# Target: T1, EGFR (Homo sapiens, UniProt P00533)
# T1 construct: host or cells: HT-29 colon cancer cells
# Assay: pEGFR and tEGFR levels in EGF-stimulated HT-29 colon cancer cells by laser scanning cytometry
# Format: cell-based
# Conditions: HT-29 cells, 0% FCS, 10 mM, EGF 100 ng/ml for 5 min
# Protocol: We sought to test RTK response to RTKI's and thus measured both phospho-RTK and total RTK using a known RTKI challenge reagent. AEE788 (NOVARTIS®) is an oral multiple-receptor tyrosine kinase inhibitor of EGFR, human epidermal growth factor receptor 2 (HER-2), and vascular endothelial growth factor receptor (VEGFR). Thus, we measured EGFR response to AEE788 using antibody quantitation of the two parameters. HT-29 colon cancer cells were treated with increasing doses of AEE788, (0, 4, 20, 100, and 1000 nM) for 4 hours in serum-free media followed by EGF stimulation at 100 ng/ml for 5 minutes. Cells were then fixed and stained with anti-phospho-EGFR (P-EGFR-Y1173) antibody followed by a secondary antibody conjugated with a fluorescent probe. The mean fluorescence index (MFI) of pEGFR was quantified by laser scanning cytometry (LSC) […] and the results are shown in Table 2.
structure (smiles),measurement,value
COc1cc2ncnc(Nc3cccc(Cl)c3)c2cc1OC [AG1478],pEGFR fold change in level,0.60 fold
same,pEGFR/tEGFR fold change in level,0.29 fold
same,tEGFR fold change in level,2.12 fold
